US7723091B2 (priority 1999, dated 2010)
Where two headings read alike, the source gives them in different places.

System: MDCK monolayer cell cultures
Details: 48 hours; for % Toxicity (95% CL) / Toxicity Score: MDCK monolayers

Substance: phosphatidylinositol specific phospholipase C [Recombinant PI-PLC]
- concentration at which significant toxicity was observed (MDCK cells): ≥ 3 U/mL
- concentration range with no significant toxicity (MDCK cells): 0.1-1 U/mL
- % Toxicity (95% CL) (0.1 U/mL): 10%
- Toxicity Score (0.1 U/mL): 1 (6-25%)
- % Toxicity (95% CL) (0.3 U/mL): 11%
- Toxicity Score (0.3 U/mL): 1 (6-25%)
- % Toxicity (95% CL) (1 U/mL): 13%
- Toxicity Score (1 U/mL): 1 (6-25%)
- % Toxicity (95% CL) (3 U/mL): 57%
- Toxicity Score (3 U/mL): 3 (51-75%)
- % Toxicity (95% CL) (10 U/mL): 83%
- Toxicity Score (10 U/mL): 4 (76-100%)
